# Experimental data taken from patent US11065294B2, “Composition including oriental medicine to treat neoplastic disease” (COMPREHENSIVE AND INTEGRATIVE MEDICINE INSTITUTE, priority 2013, dated 2021).
# Counter-ions that a name gives are not always drawn.
# Test system: MCF-7 cell xenograft
# Assay: MCF-7 xenograft nude mice, 35 days oral: tamoxifen 20 mg/kg single, JEKHT 500 mg/kg single, or co-administered within 5 minutes; tumor, immune and cachexia readouts
# Assay type: in vivo, Balb/c Slc nu/nu mice
# Conditions: tumor mass; JEKHT dose = table row
# Text: In Example 3, as laboratory animals, Balb/c Slc nu/nu mice (5-week-old females, SLC, Shizuoka, Japan) were used. Seventy three nude mice were purchased, and sixty seven xenografted mice having a tumor volume of 50 mm^3 or more 14 days after MCF-7 cells were xenografted into subcutaneous parts of a right hip of each mouse were selected, and divided into groups of seven mice each.
# The xenografted MCF-7 cells were maintained by sub-culturing the MCF-7 cells (American Type Culture Collection Center, VA, USA) using 10% fetal bovine serum (FBS)-added RPMI 1640 (Gibco, Grand Island, N.Y., USA) media in a 5% C02 incubator at 37° C., and a solid tumor mass was formed by preparing a tumor cell suspension to have a cell concentration of 1.0×10^8 cell/ml, and grafting 0.2 ml (2×10^7 cell/mouse) of the MCF-7 tumor cell suspension on a subcutaneous part of a right hip of each mouse.
compound,measurement,value
"CC/C(=C(\c1ccccc1)c1ccc(OCCN(C)C)cc1)c1ccccc1 [Tamoxifen, Tamoxifen citrate]",Caspase-3 immunoreactive cell percentages,21.86 ± 4.22 %/tumor cells
same,PARP immunoreactive cell percentages,22.14 ± 4.26 %/tumor cells
same,TNF-α immunoreactive cell percentages,3.71 ± 1.80 %/tumor cells
